# According to publication doi:10.1101/2021.03.15.435551, “Discovery of SARS-CoV-2 papain-like protease inhibitors through a combination of high-throughput screening and FlipGFP-based reporter assay” (bioRxiv, 2021):
# Molecular target: T1, SARS-CoV-2 PL^pro (PL^pro; PL^pro-His) (Severe acute respiratory syndrome coronavirus 2, UniProt P0DTD1)
# T1 construct: gene rep
# Experiment: enzyme kinetics, Lineweaver-Burk, FRET peptide
# Assay type: biochemical
compound,measurement,value
Cc1ccc(N)cc1C(=O)N[C@H](C)c1cccc2ccccc12 [GRL0617],Ki,"For the Lineweaver-Burk plots of GRL0617, Jun9-13-7 and Jun9-13-9"
